Reference: PubChem BioAssay AID705 (SRMLSC, 2007)
The list shows a part of the results, in another mix than the full data. Active and inactive are the calls of the source.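 Rule for the calls: active = growth inhibition above 25% in both replicates, a cutoff set 3 SD above the mean; inconclusive = above 25% in only one replicate; inactive = the rest.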

Assay: S. cerevisiae growth inhibition in permissive medium (OD615), pilot counter-assay for S. cerevisiae lifespan shortening project, permissive growth control (AID 705)
Conditions: OD615, 24 h, at 10 µM, active compounds read high
Summary of the method: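 assay system = Saccharomyces cerevisiae strain carrying genetically modified DeaD replicative-lifespan system | technique = absorbance (optical density) at 615 nm | buffer or medium = permissive raffinose/galactose medium | timing = cells pre-grown 4 h, then 24 h compound exposure, 30 °C humidified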
For `CP(=O)(Nc1ccc2c(c1)OCCO2)Oc1ccccc1` (stereo not given), the growth inhibition was inactive: -3.08%.
In the case of `CP(=O)(Oc1ccccc1)N1CCOC1=O` (stereo not given), the growth inhibition is reported as inactive: 0.025%.
With `CP(=O)(NC(=O)Nc1ccccc1)Oc1ccccc1` (stereo not given) the growth inhibition was inactive: -6.03%.
In the case of `Cc1ccc(NP(C)(=O)Oc2ccccc2)c(C)c1` (stereo not given), the growth inhibition is reported as inactive: -8.25%.
For `Cc1ccc(C)c(NP(C)(=O)Oc2ccccc2)c1` (stereo not given), the growth inhibition was inactive: -11.4%.
